Screening data as filed in PubChem.
Only some compounds are listed: those with a hit (about 2.5% of all), similar ones and a draw of the others.
TrxR1 substrate – is turned over as a substrate by rat TrxR1. O89049. purified TrxR1 substrate turnover, NADPH consumption readout. Potency, µM (top dose mostly 114 µM), for inactives: at the top dose activity change, negative = substrate turnover. 390,000 tested, 0.01% active. AID 588456; further: potency means the concentration at half of the fitted maximal effect; on the % scale 0 is the no-effect control and ±100 the full control effect; nearly all actives have a fitted effect of over 50% in size
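Rat TrxR1, dispensed at 90 nM, was prereduced with 400 uM NADPH (final) for 5 min at ~22 deg C, then incubated with compound 15 min before 400 uM selenite. A first-read NADPH fluorescence drop versus no-compound background flagged substrates.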
Anesthetic bind – binds horse apoferritin like a general anesthetic | P02791 | apoferritin/1-aminoanthracene competitive binding, fluorescence | Potency, µM (titrated, usually from 77.5 µM), without a hit: at the highest dose activity change, negative = displacement, most hits filed as inhibitors | 350,000 tested, 0.074% active | AID 485281; further: potency means the concentration at half of the fitted maximal effect; on the % scale 0 is the no-effect control and ±100 the full control effect; nearly all actives have a fitted effect of over 20% in size
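Concentration-response curves derived by four-parameter Hill fitting of normalized fluorescence, where compounds displaced 1-AMA from 10 uM horse apoferritin following a brief 10 min room-temperature incubation; propofol titration acted as positive control.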
TrxR1 inh – blocks rat thioredoxin reductase 1 | 390,000 tested, 1% active | O89049 | Potency, µM (doses to about 114 µM), for the others: at the top dose activity change, negative = inhibition, most hits filed as inhibitors | recombinant rTrxR1, NADPH fluorescence consumption, selenite substrate | AID 588453; further: potency means the concentration at half of the fitted maximal effect; on the % scale 0 is the no-effect control and ±100 the full control effect; nearly all actives have a fitted effect of over 65% in size
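Rat TrxR1 (90 nM in the dispensed reagent) was pre-reduced with 400 uM NADPH for 5 min at room temperature, then incubated with compound for 15 min. After 400 uM selenite was added, NADPH fluorescence (Ex 340/Em 450 nm) was followed for 8 min.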
ClpP mod – qHTS Assay for Activators of ClpP; ATP-dependent Clp protease proteolytic subunit (Bacillus subtilis (strain 168)), P80244; Potency, µM (top dose mostly 57.5 µM), without a hit: top-dose activity change, negative = active; AID 651965, 2013; 340,000 tested, 1.9% active; purified B. subtilis ClpP, FRET peptide cleavage, 20 min; active means well fitted falling curve with a large enough effect; inconclusive means small, poorly fitted or top-dose-only effect; inactive means no such curve, though single readings can be large or run the other way; further: potency means the concentration at half of the fitted maximal effect; the source files actives as falling curves though it sought activators and does not explain the sign; nearly all actives have a fitted effect of over 65% in size
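FRET quenching reversal measured ClpP activation: 10 microg/mL B. subtilis ClpP at pH 8 with the FRET-FV decapeptide, read at 430 nm after 320 nm excitation. The 20-min minus 0-min signal was scaled between DMSO/no-enzyme wells and ADEP (5.8 microM final).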
miR-21 reporter – miR-21 reporter, rising signal; HeLa miR-21 FLuc reporter, luciferase, 48 h; Potency, µM (top dose mostly 38.3 µM), without a hit: at the highest dose reporter change, positive = more light; 340,000 tested, under 10 active; active = well fitted rising curve with a large enough effect; inconclusive = small, poorly fitted or top-dose-only effect; inactive = no such curve, though single readings can be large or run the other way;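 further: % of control where 0% means no effect; miR-21 action dims this reporter so a rising signal means less miR-21 action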
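HeLa cells endogenously expressing miR-21, stably carrying CMV-driven firefly luciferase with a downstream miR-21 binding site, 2000 cells/well. Titrations up to approximately 40 uM, 48 hours; luciferase luminescence read.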
Numbers without * were called inactive; ? = inconclusive; . = no result given; [ ] = another dose, or the depositor's remark. Unless noted, the call rests on the fitted dose curve; in most records, active means well fitted curve in the direction sought with a large enough effect; inconclusive means small, poorly fitted or top-dose-only effect, or another doubt; inactive means no such curve, though single readings can be large; an effect the other way counts as inactive or inconclusive.

Chains of the proteins cited; added tags and fusions are not shown.
ATP-dependent Clp protease proteolytic subunit (Bacillus subtilis (strain 168)), P80244, UniProt P80244, whole entry, looked up: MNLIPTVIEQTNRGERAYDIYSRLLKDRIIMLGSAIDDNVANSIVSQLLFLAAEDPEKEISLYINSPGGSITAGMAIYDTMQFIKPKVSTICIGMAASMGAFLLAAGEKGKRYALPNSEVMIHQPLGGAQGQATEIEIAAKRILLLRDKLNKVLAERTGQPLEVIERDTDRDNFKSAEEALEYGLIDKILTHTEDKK

[1] Cc1ccc2c(c1)c1c3n2CCN(C(=O)CCl)C3CCC1 (configuration not stated)
[2] CC(C)C(=O)N1c2ncnn2C2(CCCCC2)[C@@H]2CCCC[C@@H]21
[3] COC(=O)c1ccc(/C=C/C(=O)OCC(=O)Nc2ncc(Cl)cc2Cl)cc1
[4] Cc1ccc(/C=C/C(=O)OCC(=O)NCc2cccs2)o1
[5] O=C(COC(=O)/C=C/c1ccco1)Nc1ncc(Cl)cc1Cl
[6] O=C(COC(=O)/C=C/c1ccco1)NCc1ccc(Cl)cc1
assay / compound | 1 | 2 | 3 | 4 | 5 | 6
ClpP mod | . | -4% | -4% | . | -2% | 1%
TrxR1 substrate | 10% | -6% | -2% | -11% | -5% | -3%
miR-21 reporter | 20% | 17% | . | . | -4% | .
Anesthetic bind | 3% | -8% | . | . | -9% | .
TrxR1 inh | 7.9µM* | 9% | -2% | 56µM* | 50µM* | 79µM*

[7] O=C(COC(=O)/C=C/c1ccccc1)NCc1cccs1
[8] CC(C)=CC(=O)OCC(=O)Nc1nc(C)c(Cl)cc1Cl
[9] Cc1nc(NC(=O)COC(=O)/C=C/c2ccco2)c(Cl)cc1Cl
[10] COC(=O)c1scc(-c2ccc(C)cc2)c1S(=O)(=O)Nc1cc(C)c(Cl)cc1OC
[11] C=CCN1C=C2C(=O)C(C)(OC(=O)C3CCCC3)C(=O)C(c3ccccc3)=C2C=C1CCCC(=O)OC (configuration not stated)
[12] COC(=O)CCCC1=CC2=C(c3ccccc3)C(=O)C(C)(OC(=O)C3CCCC3)C(=O)C2=CN1C1CC1 (configuration not stated)
assay / compound | 7 | 8 | 9 | 10 | 11 | 12
ClpP mod | -1% | 0% | -1% | -2% | 1% | -1%
TrxR1 substrate | 4% | 10% | 4% | -6%[57.1 µM] | 3% | -4%[57.1 µM]
miR-21 reporter | . | -10% | . | -6% | -1% | 1%
Anesthetic bind | . | -19% | . | 57% | -10% | 2%
TrxR1 inh | 30% | 29% | 40µM* | 25%[57.1 µM] | 79µM* | -16%[57.1 µM]

[13] CCOC(=O)c1c(CN2CCCCC2)oc2ccc(O)cc12
[14] CC1CCCN(CCCNC(=O)c2coc3nc4ccccc4nc23)C1 (configuration not stated)
[15] Cc1cc(C)nc(Nc2nc(C)c3cc4c(cc3n2)OCO4)n1
[16] Cc1ccc(Nc2c(-c3ccc(C)s3)nc3cccc(C)n23)cc1
[17] C=CCn1c(SCC(=O)N2CCOCC2)nc2sc(CC)cc2c1=O
[18] C=CCn1c(SCC(=O)N2CCc3ccccc3C2)nc2sc(CC)cc2c1=O
assay / compound | 13 | 14 | 15 | 16 | 17 | 18
ClpP mod | 28µM* | 13µM* | 16µM* | 4% | -3% | 20µM*
TrxR1 substrate | -8% | 273% | 55% | 55% | -10% | 11%[57.1 µM]
miR-21 reporter | -10% | -19% | 0% | . | . | 21%
Anesthetic bind | -18% | 201% | -4% | . | . | -4%
TrxR1 inh | 0%[57.1 µM] | -16% | 13% | 24% | -7% | 5%[57.1 µM]

[19] CCCN(CCC)CCCNC(=O)C1CCN(c2nc3ccc(CC)cc3s2)CC1
[20] Nc1ccccc1OCCOc1ccccc1N
[21] Nc1ccccc1OCCOCCOc1ccccc1N
[22] COCCOc1ccc(C(F)(F)F)cc1NC(=O)c1ccccc1F
[23] CCOC(=O)c1c(N)c2cc([N+](=O)[O-])ccc2n1C
[24] CCOC(=O)/C(=C/c1c(C)n(C)c2ccc([N+](=O)[O-])cc12)C(C)=O
assay / compound | 19 | 20 | 21 | 22 | 23 | 24
ClpP mod | -1% | 1% | 22µM* | 25µM* | 1% | .
TrxR1 substrate | 9%[2.29 µM] | 7%[57.1 µM] | -1% | 14% | -10% | -12%
miR-21 reporter | ? | -23% | -6% | -2% | -14% | 23%
Anesthetic bind | -15% | -16% | -9% | 2% | 0% | 2%
TrxR1 inh | 6% | 0%[57.1 µM] | 9% | 14% | 8% | 45µM*

Profiles as entered above. Screens in order: ClpP mod | TrxR1 substrate | miR-21 reporter | Anesthetic bind | TrxR1 inh
Results for `Nc1ccccc1OCCOCCOc1ccccc1N` → 22µM* | -1% | -6% | -9% | 9%
Results for `CCCN(CCC)CCCNC(=O)C1CCN(c2nc3ccc(CC)cc3s2)CC1` → -1% | 9%[2.29 µM] | ? | -15% | 6%

(continued)
[25] CCOC(=O)c1c(C)[nH]c(C)c1S(=O)(=O)NCC(=O)N1CCN(c2cccc(C)c2)C(C)C1 (configuration not stated)
[26] O=C1c2ccccc2NC2(CCCCC2)N1c1ccc(O)cc1
[27] CC1CCC2(CC1)Nc1ccccc1C(=O)N2c1ccccc1 (configuration not stated)
[28] Cn1c(=O)c2c(nc(N/N=C/c3ccncc3)n2Cc2ccccc2)n(C)c1=O
[29] COc1cc(/C=N/Nc2nc3c(c(=O)n(C)c(=O)n3C)n2Cc2ccccc2)ccc1OC(=O)c1ccco1
[30] CCN(c1cc(C)cc(C)c1)S(=O)(=O)c1nnc(NC(=O)c2cccc(F)c2)s1
assay / compound | 25 | 26 | 27 | 28 | 29 | 30
ClpP mod | -1% | ? | 28µM* | -16% | 32µM* | -13%
TrxR1 substrate | 2%[57.1 µM] | 2%[57.1 µM] | 92% | -17% | 47% | -6%
miR-21 reporter | 0% | -19% | -46% | 0% | -3% | 13%
Anesthetic bind | ? | -1% | 0% | -12% | 0% | ?
TrxR1 inh | 11%[57.1 µM] | 11%[57.1 µM] | -19% | -2%[57.1 µM] | 33% | 9%

[31] COc1cccc(-c2nc(SCC(=O)NCC3CCCO3)c(-c3ccc(Cl)cc3)[nH]2)c1 (configuration not stated)
[32] COc1cccc(-c2nc(SCC(=O)NCC3CCCO3)c(-c3ccc(C)cc3)[nH]2)c1 (configuration not stated)
[33] COc1cccc(-c2nc(SCC(=O)NC3CCCC3)c(-c3ccccc3)[nH]2)c1
[34] COc1cccc(-c2nc(SCC(=O)NC3CCCC3)c(-c3ccc(F)cc3)[nH]2)c1
[35] COc1cccc(CNC(=O)c2ccc(-c3nc(CS(=O)(=O)c4ccccc4)c(C)o3)cc2)c1
[36] O=C(Nc1cccc2cccnc12)c1ccc(Br)cc1
assay / compound | 31 | 32 | 33 | 34 | 35 | 36
ClpP mod | 25µM* | ? | 32µM* | 35µM* | 4% | .
TrxR1 substrate | -5% | 22% | 1% | -1% | 15% | 11%[0.457 µM]
miR-21 reporter | 22% | 22% | 21% | 29% | 7% | .
Anesthetic bind | -11% | -5% | 6% | 8% | 9% | .
TrxR1 inh | 4% | 27% | -2% | 2% | 2% | 13%

[37] Cc1ccccc1NC(=O)Cn1c(SCC(=O)Nc2ccc(F)cc2)nc2ccccc21
[38] O=C(CCn1cnnn1)N1CCCC(Nc2ccc(F)c(F)c2)C1 (configuration not stated)
[39] CC12CCC(=O)N1C(C(=O)Nc1ccc(S(=O)(=O)N3CCCCC3)cc1)CS2 (configuration not stated)
[40] CC12CCC(=O)N1C(C(=O)Nc1cccc(S(=O)(=O)N3CCCCCC3)c1)CS2 (configuration not stated)
[41] O=C(CCC(=O)c1cccs1)OCC(=O)c1ccc(Cl)s1
[42] Cc1ccc(N2C(=O)CC(Cc3ccc(Cl)cc3)C2=O)cc1 (configuration not stated)
[43] Cc1ccc(CC2CC(=O)N(c3ccc(C)cc3)C2=O)cc1 (configuration not stated)
[44] COc1ccc(C(=O)c2cn(Cc3ccccc3F)c3cc4c(cc3c2=O)OCCO4)cc1OC
[45] CCn1nc(C)c2c(-c3ccccc3)cc(=O)n(C(C)C(=O)NCc3ccccc3OC)c21 (configuration not stated)
assay / compound | 37 | 38 | 39 | 40 | 41 | 42 | 43 | 44 | 45
ClpP mod | 1% | 32µM* | 0% | 28µM* | 0% | 7.1µM* | 0% | -1% | 4%
TrxR1 substrate | 6%[57.1 µM] | -2% | 4% | 4%[11.4 µM] | -4% | -8% | -2% | -2% | -1%[57.1 µM]
miR-21 reporter | -1% | -3% | . | . | -2% | 7% | -6% | -21% | -3%
Anesthetic bind | -4% | -7% | . | . | 28µM* | -7% | -10% | ? | -7%
TrxR1 inh | 19%[57.1 µM] | -19% | 10% | 22%[11.4 µM] | -14% | 7%[57.1 µM] | 6% | 0% | 9%[57.1 µM]

3 entries out of the list, ordered by molar mass, falling.
[45] CCn1nc(C)c2c(-c3ccccc3)cc(=O)n(C(C)C(=O)NCc3ccccc3OC)c21 (configuration not stated)
[41] O=C(CCC(=O)c1cccs1)OCC(=O)c1ccc(Cl)s1
[43] Cc1ccc(CC2CC(=O)N(c3ccc(C)cc3)C2=O)cc1 (configuration not stated)
assay / compound | 45 | 41 | 43
ClpP mod | 4% | 0% | 0%
TrxR1 substrate | -1%[57.1 µM] | -4% | -2%
miR-21 reporter | -3% | -2% | -6%
Anesthetic bind | -7% | 28µM* | -10%
TrxR1 inh | 9%[57.1 µM] | -14% | 6%
